# Screening data: PubChem BioAssay, National Center for Advancing Translational Sciences (NCATS)
# Nrf2 ARE act = Nrf2 pathway activation. AREc32 ARE-luciferase reporter (MCF7-derived line), luminescence, 24 h. Potency, µM (titrated, usually from 46.1 µM), without a hit: top-dose activation, actives largely listed as activators. 410,000 tested, 0.31% active; also: potency is read from the fitted curve at half-maximal effect; % of control where 0% means no effect; nearly all actives have a fitted effect of over 65% in size
#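 ARE-driven firefly luciferase activity in AREc32 cells measured after a 24 hr compound exposure at 37 deg C, using Steady-Glo reagent and a 30 min room-temperature hold.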
# Nrf2 inh = Nrf2 pathway inhibition | Potency, µM (titrated, usually from 46 µM), inactives show at the top dose activity change, negative = inhibition, actives largely listed as inhibitors | 360,000 tested, 2.1% active | A549 ARE-Fluc reporter, luciferase luminescence, 18-24 h | AID 504444; also: potency is read from the fitted curve at half-maximal effect; % is scaled to controls: 0 for no effect and ±100 for the full control effect; nearly all actives have a fitted effect of over 60% in size
#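 A549 ARE_Fluc cells (5000/well, 5% FBS OPTI-MEM) pre-incubated 2 h, then treated with compounds 18-24 h at 37C/5% CO2 in concentration-response. CellTiter-Fluor viability read first; BugLite luciferase luminescence after 15 min at room temperature gives Nrf2 activity.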
# ClpP mod = qHTS Assay for Activators of ClpP; ATP-dependent Clp protease proteolytic subunit (Bacillus subtilis (strain 168)), P80244; purified B. subtilis ClpP, FRET peptide cleavage, 20 min; Potency, µM (doses to about 57.5 µM), for the others: at the top dose activity change, negative = active; 340,000 tested, 1.9% active; active = well fitted falling curve with a large enough effect; inconclusive = small, poorly fitted or top-dose-only effect; inactive = no such curve, though single readings can be large or run the other way; also: potency is read from the fitted curve at half-maximal effect; the source files actives as falling curves though it sought activators and does not explain the sign; nearly all actives have a fitted effect of over 65% in size
#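 ClpP 10 microg/mL final, pH 8 Tris/KCl buffer with BSA, glycerol, Tween-20; compound pinned in; FRET-FV substrate; RT 20 min; Ex320/Em430; ΔFRET vs ADEP 5.8 microM, DMSO, no enzyme.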
# p53 reactivation = re-activators of mutant p53; H1299 p53-A138V BP100-luciferase reporter, luminescence, 24 h; Potency, µM (titrated, usually from 92.2 µM), for the others: at the top dose activity change, positive = activation, most hits filed as activators; 320,000 tested, 0.063% active; also: potency is read from the fitted curve at half-maximal effect; % of control where 0% means no effect; nearly all actives have a fitted effect of over 45% in size
#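 H1299 (p53-null), stable ts p53-A138V + BP100-Luc; 1000 cells/well, Opti-MEM/10% FBS; cpd 4 pt, 1:5; 24 h, 37 deg C, 5% CO2; detection reagent 10 min RT; luminescence.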
# miR-21 FLuc = miR-21 reporter, rising signal | HeLa miR-21 FLuc reporter, luciferase, 48 h | Potency, µM (top dose mostly 38.3 µM), inactives show at the top dose reporter change, positive = more light | 340,000 tested, under 10 active | AID 2288; active = well fitted rising curve with a large enough effect; inconclusive = small, poorly fitted or top-dose-only effect; inactive = no such curve, though single readings can be large or run the other way;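 further: % of control where 0% means no effect; miR-21 action dims this reporter so a rising signal means less miR-21 action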
#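 HeLa cells stably expressing CMV-driven firefly luciferase with a downstream miR-21 binding sequence, endogenously expressing miR-21, were treated with titrations (up to about 40uM final) for 48 hours at 37 degree Celsius. Luciferase luminescence was read after lysis.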
# A549 tox = kills or reduces viability of A549 cells in Nrf2 counter-screen. Potency, µM (top dose mostly 46 µM), for the others: at the highest dose activity change, negative = cytotoxicity, hits mostly inhibitors. 390,000 tested, 0.16% active. A549 ARE-Fluc cells, CellTiter-Fluor viability, 18-24 h; also: potency is read from the fitted curve at half-maximal effect; % is scaled to controls: 0 for no effect and ±100 for the full control effect
#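 Cytotoxicity counterscreen: CellTiter-Fluor fluorescence was measured in A549 ARE_Fluc cells after 18-24 h of compound exposure in a concentration series. The subsequent BugLite luminescent read reports ARE-luciferase activity.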
# An asterisk follows results filed as active; ? = inconclusive; · = no result given; [ ] = another dose, or the depositor's remark. The list is not random: actives were taken first. Their share in the collection is about 3.7%. Unless noted, calls follow the shape of the dose curve; as a rule, active = well fitted curve in the direction sought with a large enough effect; inconclusive = small, poorly fitted or top-dose-only effect, or another doubt; inactive = no such curve, though single readings can be large; an effect the other way counts as inactive or inconclusive.
(1) Cc1c(C(=O)N2CCC(C)CC2)c(S(=O)(=O)Nc2ccc(OC(F)(F)F)cc2)c(C)n1C
(2) Cc1ccc(C)c(Oc2cc(F)nc(N)n2)c1
(3) COc1ccc(Oc2cc(F)nc(N)n2)cc1
(4) Cc1noc2ncnc(Nc3ccc(F)cc3)c12
(5) CC(C)c1ccc(Nc2ncnc3onc(-c4ccc(F)cc4)c23)cc1
(6) COCCn1c(C)cc(O)c(C(c2ccccc2)N2CCN(c3ccccc3)CC2)c1=O (stereo not given)
(7) CCC(=O)Nc1c(-c2ccc(OC)cc2)c(=O)c2ccccc2n1C
(8) COc1cc(OC)cc(C(=O)Nc2ccc(-c3nc4cc(C(C)C)ccc4o3)cc2)c1
(9) Cc1cccc(C(=O)Nc2ccc(-c3nc4cc(C(C)C)ccc4o3)cc2)c1
(10) CCOc1ccc(C(=O)Nc2ccc(-c3nc4cc(C(C)C)ccc4o3)cc2)cc1Cl

Sequences of proteins named here, by UniProt entry; tags and fusion partners are left off.
ATP-dependent Clp protease proteolytic subunit (Bacillus subtilis (strain 168)), P80244, UniProt P80244, whole entry, looked up: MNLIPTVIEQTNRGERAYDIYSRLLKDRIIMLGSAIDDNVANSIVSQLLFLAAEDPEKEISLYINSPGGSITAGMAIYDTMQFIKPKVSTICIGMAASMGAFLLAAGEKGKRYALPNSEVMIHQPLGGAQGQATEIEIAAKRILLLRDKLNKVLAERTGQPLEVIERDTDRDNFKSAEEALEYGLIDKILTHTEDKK

Assay by compound	1	2	3	4	5	6	7	8	9	10
Nrf2 ARE act	-0.1%	1.9%	-0.6%	-0.2%	5.3%	-0.9%	0.5%	13.8%	5.3%	3.8%
Nrf2 inh	·	1.4%	·	·	6.2%	·	?	14.6µM*	14.6µM*	-27.5%
ClpP mod	1.6%	17.8µM*	-1.7%	-3.5%	22.4µM*	-0.6%	35.5µM*	3.6%	?	-24.7%
p53 reactivation	·	-6.1%	-3.0%	·	·	·	-0.3%	·	·	·
miR-21 FLuc	0.9%	-6.8%	-13.3%	-8.4%	8.5%	-1.2%	-1.1%	-9.4%	18.9%	-10.5%
A549 tox	-10.4%	7.3%	0.7%	0.0%	16.9%	2.3%	19.1%	-4.2%	1.9%	-3.7%

(11) COc1cc(OC)cc(C(=O)Nc2ccc(-c3nc4ccccc4o3)cc2)c1
(12) CCc1ccc(C(=O)Nc2cccc(-c3nc4cc(C(C)C)ccc4o3)c2)cc1
(13) CC1=C(C(N)=O)C(c2cccc(F)c2)n2nc(SCc3ccccc3)nc2N1 (stereo not given)
(14) Nc1c(C(=O)Nc2ccccc2F)sc2nc(-c3ccco3)ccc12
(15) Cc1cccc(NC(=O)c2cc3n(n2)C(C(F)(F)F)CC(c2ccc4c(c2)OCO4)N3)c1 (stereo not given)
(16) COc1ccc(NC(=O)c2cc3n(n2)C(C(F)(F)F)CC(c2ccc4c(c2)OCO4)N3)cc1OC (stereo not given)
(17) C/C(NC(=O)c1ccccc1F)=C1\C(=O)C[C@@H]2[C@H]1C2(C)C
(18) FC(F)(F)c1cc(-c2ccc(Cl)cc2)nc(NCc2cccnc2)n1
(19) Cc1ccc(-c2cc(C(F)F)nc(NCc3cccnc3)n2)cc1
(20) Cc1c(Cl)cccc1-n1ncc(C(=O)NCCN2CCN(C)CC2)c1C1CCN(C(=O)OC(C)(C)C)CC1

Assay by compound	11	12	13	14	15	16	17	18	19	20
Nrf2 ARE act	4.6%	0.8%	-1.4%	10.4%	-0.7%	-0.3%	4.0%	3.0%	3.3%	-0.8%
Nrf2 inh	-10.0%	?	·	?	·	23.1µM*	·	14.6µM*	?	0.0%
ClpP mod	867.8%	25.1µM*	-12.0%	28.2µM*	-2.0%	-1.1%	-0.7%	?	14.1µM*	2.2%
p53 reactivation	-13.1%	·	·	?	-24.6%	-4.5%	12.6µM*	-5.4%	5.0%	·
miR-21 FLuc	8.9%	-9.5%	-14.3%	-43.8%	28.6%	-7.0%	-55.8%	23.4%	-2.2%	-1.4%
A549 tox	-13.6%	9.2%	-0.8%	-15.4%	-12.8%	-26.2%	-3.0%	6.4%[1.84 µM]	-11.2%	4.0%

(21) CCOCCc1nn2c(=O)cc(COC(=O)c3ccc(NC(=O)c4ccc(F)cc4)cc3)nc2s1
(22) COc1cccc(CNC(=O)CCCn2c(=O)c3cccn3c3ccc(F)cc32)c1OC
(23) Cc1c(Cl)cccc1NC(=O)Nc1nnc(N(C)C2CCCCC2)s1
(24) CCCn1c(CCC(=O)O)ccc1-c1ccc(OC)cc1
(25) C=CCn1c(CCC(=O)O)ccc1-c1ccccc1
(26) COc1ccc(N2C(=O)CCC(C(=O)N3CCCCC3)C2c2ccc(F)cc2)cc1 (stereo not given)
(27) O=C1OCCC1Sc1nnc(-c2ccc(Cl)cc2Cl)o1 (stereo not given)
(28) O=C(Nc1ccccc1)c1cccc2c(=O)c3c([nH]c12)CCCC3
(29) Cc1nnc2c3ccccc3nc(Nc3ccccc3C(=O)O)n12
(30) c1cncc(CNc2ncnc3ccc(-c4ccoc4)cc23)c1

Assay by compound	21	22	23	24	25	26	27	28	29	30
Nrf2 ARE act	-1.2%	7.0%	-0.2%	0.6%	-0.4%	-1.0%	-2.2%	-0.8%	4.2%	-0.3%
Nrf2 inh	·	9.7%	18.4µM*	-14.9%	-27.2%	·	9.2µM*	3.5%	-21.7%	-8.4%
ClpP mod	-8.2%	-18.3%	-2.3%	28.2µM*	28.2µM*	12.6µM*	·	0.4%	15.8µM*	·
p53 reactivation	·	·	·	·	-5.0%	-0.2%	-8.8%	·	·	4.3%
miR-21 FLuc	-11.8%	1.5%	20.8%	-2.9%	-2.4%	0.2%	25.9%	-34.3%	-6.2%	·
A549 tox	2.0%	-0.3%	-1.5%	8.8%	?	-14.7%	9.9%	13.1%	-19.3%	-2.2%

(31) COc1cccc(-c2ccc3ncnc(NCc4cc(C)cs4)c3c2)c1
(32) Cc1cccc(CNc2ncnc3ccc(-c4ccc5c(c4)OCCO5)cc23)c1
(33) Cc1cccc(CNc2ncnc3ccc(-c4ccoc4)cc23)c1
(34) COc1cccc(-c2ccc3ncnc(NCc4ccc5c(c4)OCO5)c3c2)c1
(35) Cc1csc(CNc2ncnc3ccc(-c4ccc5c(c4)OCCO5)cc23)c1
(36) Cc1noc(C)c1-c1ccc2ncnc(NCc3ccc(-c4ccccc4)cc3)c2c1
(37) CC1=C(C(=O)OCc2ccc3nsnc3c2)N2C(=O)[C@@H](NC(=O)OCc3ccc4nsnc4c3)[C@H]2SC1
(38) CNc1ncnc2c1ncn2[C@H]1CN(Cc2ccccc2)C[C@@H](CO)O1
(39) c1cncc(CNc2ncnc3ccc(-c4ccc5c(c4)OCO5)cc23)c1
(40) c1nc(NCc2ccc3c(c2)OCO3)c2cc(-c3ccc4c(c3)OCCO4)ccc2n1

Assay by compound	31	32	33	34	35	36	37	38	39	40
Nrf2 ARE act	-2.8%	3.8%	-0.8%	-0.4%	1.9%	·	·	-0.8%	3.3%	7.0%
Nrf2 inh	-23.3%	14.6µM*	18.4µM*	16.4µM*	-6.5%	11.6µM*	·	·	9.1%	23.1µM*
ClpP mod	·	·	·	·	·	·	-9.2%	1.9%	·	·
p53 reactivation	-19.3%	12.4%	-9.0%	9.0%	-4.9%	·	·	·	-1.6%	6.4%
miR-21 FLuc	·	·	·	·	·	·	·	·	·	·
A549 tox	0.5%	?	-15.6%	-18.7%	2.6%	-11.7%	·	·	8.5%	2.4%

# Some of these compounds in order of SMILES length, ascending.
(33) Cc1cccc(CNc2ncnc3ccc(-c4ccoc4)cc23)c1
(36) Cc1noc(C)c1-c1ccc2ncnc(NCc3ccc(-c4ccccc4)cc3)c2c1
(37) CC1=C(C(=O)OCc2ccc3nsnc3c2)N2C(=O)[C@@H](NC(=O)OCc3ccc4nsnc4c3)[C@H]2SC1

Assay by compound	33	36	37
Nrf2 ARE act	-0.8%	·	·
Nrf2 inh	18.4µM*	11.6µM*	·
ClpP mod	·	·	-9.2%
p53 reactivation	-9.0%	·	·
miR-21 FLuc	·	·	·
A549 tox	-15.6%	-11.7%	·

# Continuation.
(41) CCNc1cccc(S(=O)(=O)N2CCCN(S(=O)(=O)c3ccc4c(c3)OCCO4)CC2)c1
(42) N#CC1=C(N)Oc2n[nH]c(-c3cccs3)c2C1c1ccoc1 (stereo not given)
(43) CCOC(=O)c1cc2c3ccccc3n(CC)c2nc1N
(44) CCn1c2ccccc2c2cc(C#N)c(N)nc21
(45) Cc1ccccc1S(=O)(=O)Oc1ccccc1C(=O)Oc1ccccc1
(46) Cc1ccc([N+](=O)[O-])cc1-c1[nH]c(-c2ccc(O)c(O)c2)nc1-c1ccccc1

Assay by compound	41	42	43	44	45	46
Nrf2 ARE act	·	?	0.9%	6.0%	0.1%	3.5%
Nrf2 inh	?	-11.9%	-2.6%	-14.3%	3.3%	20.6µM*
ClpP mod	·	28.2µM*	15.8µM*	3.8%	25.1µM*	-2.6%
p53 reactivation	·	20.3%	-7.4%	·	0.0%	8.4%
miR-21 FLuc	·	-3.2%	0.5%	·	-7.7%	5.7%
A549 tox	-1.7%	3.4%	-5.1%	0.7%	-1.7%	?
